The conditions of the series: micropost tips 40% G6PD and 60% PEO 200k versus uncompressed powder. The source says:
To perform the activity assay on G6PD, an activity assay kit (Sigma Aldrich) was used which measures the amount of oxidized glucose-6-phosphate.

Take glucose-6-phosphate dehydrogenase: the “enzymatic activity after the manufacturing process” value is given as “maintain their activity”.

The record behind these values is patent US12059562B2, “Systems for electrical stimulation” (priority 2018, dated 2024).
